Target: GLP-1 receptor (Homo sapiens, UniProt P43220)
Assay: Functional assay-cAMP synthesis, luciferase reporter in HEK293 cells co-transfected with GLP-1 receptor

By UniProt entry, the sequences of proteins in these tests, tags left out. Residues count along the entry.
UniProt P43220, 24-463, species assumed: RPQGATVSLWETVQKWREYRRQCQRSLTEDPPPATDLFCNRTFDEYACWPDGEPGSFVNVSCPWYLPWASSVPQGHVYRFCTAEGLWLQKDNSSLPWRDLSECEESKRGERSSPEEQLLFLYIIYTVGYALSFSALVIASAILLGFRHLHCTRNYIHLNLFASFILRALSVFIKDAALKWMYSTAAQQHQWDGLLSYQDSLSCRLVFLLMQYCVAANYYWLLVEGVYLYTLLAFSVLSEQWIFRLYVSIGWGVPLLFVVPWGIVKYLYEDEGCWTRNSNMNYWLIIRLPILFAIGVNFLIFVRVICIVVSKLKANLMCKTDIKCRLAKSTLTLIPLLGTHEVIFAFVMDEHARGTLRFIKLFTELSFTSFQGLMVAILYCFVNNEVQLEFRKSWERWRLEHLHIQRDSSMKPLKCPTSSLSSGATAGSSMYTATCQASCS

X1SQGT FTSDY SKYLD ERRAK DEVC*W LMNTa
Parent w/PEG % Potency Relative to Native GLP-1R: 9.3%

Source: patent US8900593B2 (Indiana University Research and Technology Corporation, priority 2007, dated 2014)
